These results are taken from patent publication US8329696B2, “Solid state forms of sitagliptin salts” (Teva Pharmaceuticals Industries Ltd., priority 2009, dated 2012).

This data set can be described thus: Exposure to 100% relative humidity at room temperature, then powder XRD. Conditions: open Petri dish, 100+5% RH, 12 days. The format is physicochemical. The method, then:
About 150 mg of Sitagliptin sulfate form S7 were put in an open Petrii dish and kept at 100+5% RH (relative humidity) and room temperature for 12 days. It was then analyzed by powder XRD.
For XRD measurement samples are mixed with small amount of Si powder and applied directly on silicon plate holder. The X-ray powder diffraction pattern was measured with Philips X'Pert PRO X-ray powder diffractometer, equipped with Cu irradiation source=1.54060 Å (Ångström), X'Celerator (2.022° 2Q) detector. Scanning parameters: angle range: 3-40 deg., step size 0.0167, time per step 39 s, continuous scan.

As for “Sitagliptin sulfate isopropanol solvate [Form S7]”, the “Polymorphic form found by powder XRD after humidity exposure” value is “transformation of Form S7 to S1”. The “Polymorphic form found by powder XRD after humidity exposure” value (listed as form S7) is on record as “form S1”.
